Tested on: Ba/F3-MER cells
Test: Cell viability assay (MTS)
Type: cell-based
Details: 72 h

For `Nc1nc(Nc2ccc3c(c2)CC[C@@H](N2CCCC2)CC3)nn1-c1cc2c(nn1)-c1ccccc1CCC2` [Compound 3, Bemcentinib, reference compound], the IC50 was 788 nM.

— publication PMC11247487, “Discovery of Dual MER/AXL Kinase Inhibitors as Bifunctional Small Molecules for Inhibiting Tumor Growth and Enhancing Tumor Immune Microenvironment” (Journal of Medicinal Chemistry, 2024)
